# High-throughput results: PubChem BioAssay, National Center for Advancing Translational Sciences (NCATS)
# Most compounds without a hit are left out; they make up all but 2.3% or so of the library.
# miR-21 FLuc: raises the signal of a miR-21 reporter | HeLa miR-21 FLuc reporter, luciferase, 48 h | Potency, µM (highest dose often 38.3 µM), without a hit: at the top dose reporter change, positive = more light | 340,000 tested, under 10 active; active = well fitted rising curve with a large enough effect; inconclusive = small, poorly fitted or top-dose-only effect; inactive = no such curve, though single readings can be large or run the other way;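 note: % of control where 0% means no effect; miR-21 action dims this reporter so a rising signal means less miR-21 action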
#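 Luminescence from a firefly luciferase reporter carrying a miR-21 binding site downstream, stably expressed under a CMV promoter in HeLa cells that make miR-21 endogenously, reports miRNA modulation after 48 h compound exposure up to approximately 40uM final.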
# Nrf2 inh: blocks Nrf2 signaling; A549 ARE-Fluc reporter, luciferase luminescence, 18-24 h; Potency, µM (highest dose often 46 µM), without a hit: at the top dose activity change, negative = inhibition, hits mostly inhibitors; 360,000 compounds, 2.1% hits; note: potency is the fitted concentration of half-maximal effect; % is set by controls: 0 for no effect and ±100 for the full control effect; nearly all actives have a fitted effect of over 60% in size
#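 Nrf2 activity is the BugLite luminescence, read 15 min after reagent at room temperature, following CellTiter-Fluor cytotoxicity readout (30 min, 37C). Compound titrations were applied for 18-24 h to 5000 A549 ARE_Fluc cells/well in 5% FBS OPTI-MEM.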
# Mito fusion yeast: blocks mitochondrial division or promotes mitochondrial fusion | S. cerevisiae fusion-defective mutant growth rescue, CellTiterGlo 48 h | Potency, µM (titrated, usually from 46.1 µM), inactives show top-dose growth rescue (activation), most hits filed as activators | 320,000 compounds, 0.23% hits; note: potency is the fitted concentration of half-maximal effect; % of control where 0% means no effect; nearly all actives have a fitted effect of over 45% in size
#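 Growth-rescue viability read-out: after 48 h at the non-permissive 37C in glycerol/ethanol YPEG, yeast mitochondrial fusion mutants are measured by CellTiterGlo luminescence; compounds (23 nl pinned per well) restoring growth score as division inhibitors or fusion activators.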
# Nrf2 ARE act: Nrf2 pathway activation. AID 624171. Potency, µM (highest dose often 46.1 µM), without a hit: at the top dose activation, most hits filed as activators. 410,000 compounds, 0.31% hits. AREc32 ARE-luciferase reporter (MCF7-derived line), luminescence, 24 h; note: potency is the fitted concentration of half-maximal effect; % of control where 0% means no effect; nearly all actives have a fitted effect of over 65% in size
#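 Nrf2 activation is followed as ARE-luciferase induction in the AREc32 line after one day of compound treatment; luminescence is read with Steady-Glo.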
# GRP78 ERSR act: induces the endoplasmic reticulum stress response in human glioma cells. AID 602332. Potency, µM, for the others: at the top dose activation, hits mostly activators. U87-MG GRP78 promoter luciferase reporter, 16 h. 420,000 compounds, 0.02% hits; note: potency is the fitted concentration of half-maximal effect; series mostly up to about 76 µM; % of control where 0% means no effect; nearly all actives have a fitted effect of over 35% in size
#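 Stably transfected U87-MG human glioma cells carrying a GRP78-based luminescent sensor were seeded at 1000 cells/well, pin-dosed with compounds and incubated 16 h. Luciferase reagent was then added, and end-point luminescence was read after 10 min at room temperature.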
# A549 viability: A549 cytotoxicity, counter-screen for Nrf2 inhibitors | A549 ARE-Fluc cells, CellTiter-Fluor viability, 18-24 h | Potency, µM (top dose mostly 46 µM), for inactives: top-dose activity change, negative = cytotoxicity, most hits filed as inhibitors | 390,000 compounds, 0.16% hits; note: potency is the fitted concentration of half-maximal effect; % is set by controls: 0 for no effect and ±100 for the full control effect
#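 Cytotoxicity counterscreen: CellTiter-Fluor fluorescence was measured in A549 ARE_Fluc cells after 18-24 h of compound exposure in a concentration series. The subsequent BugLite luminescent read reports ARE-luciferase activity.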
# * marks the source's active call; other numbers are inactive results; ? = inconclusive; · = no result. Unless noted, calls come from the whole dose curve; as a rule, active = well fitted curve in the direction sought with a large enough effect; inconclusive = small, poorly fitted or top-dose-only effect, or another doubt; inactive = no such curve, though single readings can be large; an effect the other way counts as inactive or inconclusive.
[1] COc1ccc(CC(N)c2csc(Nc3cc(Oc4ccccc4)ncn3)n2)cc1 (stereo not drawn)
[2] CCN(CC(=O)Nc1ccccc1C(F)(F)F)C(=O)c1cc2c(s1)CCCCC2
[3] CCOC(=O)c1ccc(N2C(=O)c3n[nH]c(-c4ccco4)c3C2c2cccc(F)c2)cc1 (stereo not drawn)
[4] CCOC(=O)c1ccc(N2C(=O)c3n[nH]c(-c4ccco4)c3C2c2ccc(OCC)cc2)cc1 (stereo not drawn)
[5] CCOC(=O)c1ccc(N2C(=O)c3n[nH]c(-c4ccco4)c3C2c2ccc(F)cc2)cc1 (stereo not drawn)
[6] CCOC(=O)c1ccc(N2C(=O)c3n[nH]c(-c4ccco4)c3C2c2cccc(OC)c2)cc1 (stereo not drawn)
[7] CCOc1ccc(-n2c(SCC(=O)c3ccccc3)nc3c([nH]c4ccccc43)c2=O)cc1
[8] Cc1ccc(C(=O)Nc2nnc(S(=O)(=O)N3CCCc4ccccc43)s2)cc1

screen / no.	1	2	3	4	5	6	7	8
miR-21 FLuc	·	·	?	?	?	?	-4%	0%
Nrf2 inh	·	-17%	21µM*	18µM*	?	?	·	3%
Mito fusion yeast	·	?	·	·	·	·	·	·
Nrf2 ARE act	-3%	0%	-3%	-4%	-3%	-2%	1%	9%
GRP78 ERSR act	-5%	-1%	-7%	?	0%	-2%	-4%	-1%
A549 viability	·	-5%	?	?	-17%	-29%	16%	11%

# Of the compounds above, two contain four or more nitrogen atoms.
[1] COc1ccc(CC(N)c2csc(Nc3cc(Oc4ccccc4)ncn3)n2)cc1 (stereo not drawn)
[8] Cc1ccc(C(=O)Nc2nnc(S(=O)(=O)N3CCCc4ccccc43)s2)cc1

screen / no.	1	8
miR-21 FLuc	·	0%
Nrf2 inh	·	3%
Mito fusion yeast	·	·
Nrf2 ARE act	-3%	9%
GRP78 ERSR act	-5%	-1%
A549 viability	·	11%

# Remaining list, next part
[9] O=C(Nc1nc2c(s1)CCCC2)c1ccc(S(=O)(=O)N2CCCc3ccccc32)cc1
[10] O=C(Nc1nnc(S(=O)(=O)N2CCCc3ccccc32)s1)c1ccccc1
[11] CC1CCc2nc(NC(=O)c3ccc(S(=O)(=O)N4CCCc5ccccc54)cc3)sc2C1 (stereo not drawn)
[12] CNC(=O)c1ccsc1NC(=O)c1ccc(S(=O)(=O)N2CCCc3ccccc32)cc1
[13] Cc1onc(-c2ccccc2Cl)c1C(=O)NCc1nc(-c2ccc(C(F)(F)F)cc2)no1
[14] O=C(COc1ccc2c3c(c(=O)oc2c1)CCCC3)N1CCN(c2ccc(F)cc2)CC1
[15] O=C(COc1ccc2c3c(c(=O)oc2c1)CCC3)N1CCN(c2ccc(F)cc2)CC1
[16] O=C(COc1ccc(S(=O)(=O)NC2CCCCC2)cc1)N1CCN(c2ccc(F)cc2)CC1

screen / no.	9	10	11	12	13	14	15	16
miR-21 FLuc	16%	-29%	0%	23%	18%	1%	4%	2%
Nrf2 inh	18µM*	7%	5.2µM*	18µM*	26µM*	0%	23µM*	15µM*
Mito fusion yeast	14%	·	-2%	18%	14%	0%	?	-1%
Nrf2 ARE act	8%	14%	0%	0%	2%	0%	3%	0%
GRP78 ERSR act	3%	-1%	-4%	-2%	-4%	-5%	-2%	-2%
A549 viability	-18%	1%	0%	-10%	0%	10%	-3%	1%

[17] COc1ccc(OCCSc2nc3ccccc3c(=O)[nH]2)cc1
[18] CCCn1c(CCNc2nc(-c3ccc(Cl)c([N+](=O)[O-])c3)cs2)nc2cc(Cl)c(Cl)cc21
[19] CC(C)(C)OC(=O)NC1CNNC1=O (stereo not drawn)
[20] CC(C)(C)CN1CCN(Cc2nc(-c3ccc(F)cc3)cs2)CC1CCO (stereo not drawn)
[21] OCCC1CN(Cc2nc(-c3ccc(F)cc3)cs2)CCN1CCc1ccccc1 (stereo not drawn)
[22] COc1cc2c(C#N)c(N3CCN(c4ccccc4OC)CC3)nc(N)c2c(N)n1
[23] CCOC(=O)CSc1nc2ccccc2c(=O)n1CCN1CCOCC1
[24] CC(=O)n1cc(N(C(=O)CCl)c2ccc(Cl)cc2)c2ccccc21

screen / no.	17	18	19	20	21	22	23	24
miR-21 FLuc	-24%	0%	·	24%	-1%	27%	-3%	?
Nrf2 inh	4.1µM*	6%	-4%	21µM*	?	16µM*	2%	?
Mito fusion yeast	2%	-5%	-8%	-2%	11%	?	-1%	-18%
Nrf2 ARE act	3%	3%	0%	0%	3%	0%	0%	-4%
GRP78 ERSR act	3%	-3%	-4%	-3%	-3%	-11%	-1%	-13%
A549 viability	-9%	-1%	-2%	-10%	-14%	?	-10%	?

[25] COc1ccccc1N(C(=O)CCl)c1cn(C(C)=O)c2ccccc12
[26] CCc1ccccc1N1CC(c2nc3ccccc3n2CCCCOc2ccccc2OC)CC1=O (stereo not drawn)
[27] COc1ccccc1Cn1c(C2CC(=O)N(c3ccccc3OC)C2)nc2ccccc21 (stereo not drawn)
[28] CCc1ccc(N2CC(c3nc4ccccc4n3Cc3ccccc3C)CC2=O)cc1 (stereo not drawn)
[29] CCOc1ccc(N2CC(c3nc4ccccc4n3Cc3cccc(C)c3)CC2=O)cc1 (stereo not drawn)
[30] CCOC(=O)Cn1c(C2CC(=O)N(c3ccc(C)cc3)C2)nc2ccccc21 (stereo not drawn)
[31] CCOC(=O)C(=Cc1ccc(Br)cc1)C(=O)OCC
[32] O=C(C1CCN(c2nc3ccccc3[nH]2)CC1)N1CCN(c2ccccc2)CC1

screen / no.	25	26	27	28	29	30	31	32
miR-21 FLuc	?	?	27%	11%	6%	23%	?	-1%
Nrf2 inh	23µM*	?	10µM*	15µM*	?	21µM*	18µM*	·
Mito fusion yeast	-5%	·	·	·	·	·	-32%	·
Nrf2 ARE act	?	5%	4%	1%	7%	0%	?	3%
GRP78 ERSR act	-13%	-4%	-2%	0%	-4%	-3%	-15%	0%
A549 viability	-1%	?	-5%	-7%	-11%	-13%	?	6%

# Ordered by value in miR-21 FLuc (lowest first): 3 of the compounds above
no. | Molecule | miR-21 FLuc | Nrf2 ARE act
28 | CCc1ccc(N2CC(c3nc4ccccc4n3Cc3ccccc3C)CC2=O)cc1 (stereo not drawn) | 11% | 1%
30 | CCOC(=O)Cn1c(C2CC(=O)N(c3ccc(C)cc3)C2)nc2ccccc21 (stereo not drawn) | 23% | 0%
27 | COc1ccccc1Cn1c(C2CC(=O)N(c3ccccc3OC)C2)nc2ccccc21 (stereo not drawn) | 27% | 4%

# More compounds.
[33] O=C(CCN1C(=O)/C(=C/c2ccccc2F)SC1=S)NCCCN1CCOCC1
[34] COc1ccccc1/C=C1\SC(=S)N(CCC(=O)NCCCN2CCOCC2)C1=O
[35] O=C(CCCN1C(=O)/C(=C/c2ccccc2Cl)SC1=S)NCCCN1CCOCC1
[36] COc1ccc(C/C(N)=N/OC(C)=O)cc1OC
[37] COc1ccc(C/C(N)=N/OC(=O)C(c2ccccc2)c2ccccc2)cc1OC
[38] COc1ccc(/C(N)=N/OC(=O)Cc2ccc(OC)c(OC)c2)cc1
[39] C=CC[C@@H](CC(=O)N[C@H](CO)Cc1ccccc1)C(=O)NC[C@@H](OC(=O)[C@@H](CC=C)Cc1ccc(F)cc1)c1ccccc1
[40] COc1cc(CNC(=O)Nc2nnc([C@@H]3C[C@H](O)[C@@H](CO)O3)s2)cc(OC)c1OC

screen / no.	33	34	35	36	37	38	39	40
miR-21 FLuc	-5%	3%	?	-7%	-4%	-1%	·	·
Nrf2 inh	?	?	15µM*	14%	23µM*	15µM*	3%	·
Mito fusion yeast	5%	-9%	2%	-4%	4%	0%	·	·
Nrf2 ARE act	7%	27%	5%	-1%	11%	1%	0%	0%
GRP78 ERSR act	-2%	-7%	-13%	-3%	-1%	0%	-5%	1%
A549 viability	?	23µM*	?	1%	-7%	-13%	-1%	·
